The source made the active and inactive calls. The rule behind the calls is not given here.

Sequences of proteins named here, by UniProt entry; tags and fusion partners are left off. A change or cut given only in a name is not applied to a line headed by its entry.
UniProt P37231: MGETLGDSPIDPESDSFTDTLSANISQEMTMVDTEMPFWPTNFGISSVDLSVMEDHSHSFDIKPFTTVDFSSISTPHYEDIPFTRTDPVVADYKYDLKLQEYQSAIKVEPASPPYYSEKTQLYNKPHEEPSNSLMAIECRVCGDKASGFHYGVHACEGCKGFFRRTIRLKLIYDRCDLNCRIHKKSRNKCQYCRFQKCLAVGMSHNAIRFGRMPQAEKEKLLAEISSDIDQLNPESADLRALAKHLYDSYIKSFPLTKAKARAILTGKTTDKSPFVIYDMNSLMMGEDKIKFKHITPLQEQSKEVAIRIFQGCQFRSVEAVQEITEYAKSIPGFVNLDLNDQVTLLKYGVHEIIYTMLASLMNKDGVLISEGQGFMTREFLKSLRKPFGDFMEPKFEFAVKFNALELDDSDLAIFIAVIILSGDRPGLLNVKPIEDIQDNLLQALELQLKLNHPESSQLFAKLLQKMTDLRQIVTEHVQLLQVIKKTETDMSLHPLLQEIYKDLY

The target in this test is Peroxisome proliferator-activated receptor gamma (Homo sapiens, UniProt P37231). The test is described as follows: Activation of human PPARgamma ligand binding domain expressed in COS7 cells by dual luciferase reporter gene assay relative to 1 uM pioglitazone. In kind it is cell-based. Conditions: COS-7. (In general: Reporter assays use an easily measured gene product as a stand-in for the process of interest.)

In the case of `CCCC/C(=C\c1cc(OCc2ccc(Oc3ccccn3)cc2)ccc1OCc1ccc(C(F)(F)F)cc1)C(=O)O`, the max activation entry was “inactive”. With `CCCC/C(=C\c1cc(OCc2ccc(CCCC)cc2)ccc1OCc1ccc(C(F)(F)F)cc1)C(=O)O` the entry was “inactive”; with `CCCC/C(=C\c1cc(OCc2ccc(-c3csc(C)n3)cc2)ccc1OCc1ccc(C(F)(F)F)cc1)C(=O)O`, “inactive”. With `CCCC/C(=C\c1cc(OCc2ccc(OCc3ccccc3)cc2)ccc1OCc1ccc(C(F)(F)F)cc1)C(=O)O` the entry was “inactive”; with `CCCC/C(=C\c1cc(OCc2ccc(-c3ccccc3)cc2)ccc1OCc1ccc(C(F)(F)F)cc1)C(=O)O`, “inactive”.

Source of the values: ChEMBL document CHEMBL3397016, “SAR-studies of γ-secretase modulators with PPARγ-agonistic and 5-lipoxygenase-inhibitory activity for Alzheimer's disease” (Bioorg Med Chem Lett, 2015).
